This note sets out measurements from patent US9968603B2, “Systems for sustained intraocular delivery of low solubility compounds from a port delivery system implant” (ForSight Vision4, Inc., priority 2013, dated 2018).

Data set [1] can be described thus: Formulation (solubility) screening with cyclodextrins, concentrations achieved. Particulars: for Expected Concentration Achieved: achieved vs expected formulation concentration.
A short description of data set [2]: Formulations with amphiphilic agents and non-aqueous solvents (no complexing agent), concentration dissolved. Format: physicochemical.
Data set [3] can be described thus: physchem. To be noted: pH-adjusted aqueous solution without complexing agent, pH 2, aqueous buffer.

On to `CNC(=O)c1ccccc1Sc1ccc2c(/C=C/c3ccccn3)n[nH]c2c1` [Axitinib, N-Methyl-2-((3-((1E)-2-(pyridin-2-yl)ethenyl)-1H-indazol-6-yl)sulfanyl)benzamide], for which the “Expected Concentration Achieved” value in data set [1] was “met the desired concentration levels and Yes”. The compound further showed a clear solution concentration in data set [2] (30% SOLUTOL HS 15 and 70% PBS) of at most 6 mg/mL. Also, the solution concentration in data set [2] (32% Pyrrolidone, 31% PEG 300, 5% Polysorbate 80, 31% water) was at most 20 mg/mL. The solution concentration prepared in data set [2] (neat DMSO) was 5 mg/mL; in data set [2] (neat N,N-Dimethyl acetamide), 60 mg/mL; in data set [2] (neat Pyrrolidone), 40 mg/mL. In data set [2] (neat PEG 300), this compound displayed a concentration formulated of 9 mg/mL.
On to `CCN(CC)CCNC(=O)c1c(C)[nH]c(/C=C2\C(=O)Nc3ccc(F)cc32)c1C.O=C(O)CC(O)C(=O)O` [Sunitinib, Butanedioic acid, hydroxy-, (2S)-, compound with N-[2-(diethylamino)ethyl]-5-[(Z)-(5-fluoro-1,2-dihydro-2-oxo-3H-indol-3-ylidine)methyl]-2,4-dimethyl-1H-pyrrole-3-carboxamide (1:1)], for which, in data set [1], the “Expected Concentration Achieved” value was “met the desired concentration levels and Yes”. Also, the “Concentrations achieved at pH 7, for FB” value in data set [1] (free base) is “(50 mg/mL”. The solubility in data set [3] turned out to be 40 mg/mL.

As usually defined, the solubility is the dissolved amount per volume that the medium holds.
